According to ChEMBL document CHEMBL1124573, “Alterations in the stereochemistry of the kappa-selective opioid agonist U50,488 result in high-affinity sigma ligands” (1989):

Test: Selectivity ratio for affinities determined by using [3H]BREM and [3H]-(+)-3-PPP in guinea pig ileum

Q: For `CN(C(=O)Cc1ccc(Cl)c(Cl)c1)[C@H]1CCCC[C@@H]1N1CCCC1`, which Ratio is on record?
A: 0.07
